Assay results published in PMC2783186 (Journal of medicinal chemistry, 2009).

Target: T1, TNAP (Homo sapiens, UniProt P05186)
T1 sequence (P05186 18-501 limits assumed): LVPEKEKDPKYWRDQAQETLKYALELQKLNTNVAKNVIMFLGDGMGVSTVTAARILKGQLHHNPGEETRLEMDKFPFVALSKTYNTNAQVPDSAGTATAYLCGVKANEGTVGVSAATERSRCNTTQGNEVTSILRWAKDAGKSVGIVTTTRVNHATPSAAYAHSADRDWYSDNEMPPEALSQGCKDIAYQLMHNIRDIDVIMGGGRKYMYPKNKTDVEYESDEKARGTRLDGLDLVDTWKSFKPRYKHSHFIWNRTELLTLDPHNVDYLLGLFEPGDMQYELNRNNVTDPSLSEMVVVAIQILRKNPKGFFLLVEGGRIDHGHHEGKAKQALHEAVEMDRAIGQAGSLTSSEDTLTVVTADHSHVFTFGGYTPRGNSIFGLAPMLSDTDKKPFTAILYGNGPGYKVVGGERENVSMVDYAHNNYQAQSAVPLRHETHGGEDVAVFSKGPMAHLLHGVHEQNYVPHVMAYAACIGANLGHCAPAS
Test: TNAP mechanism of action and reversibility studies
Type: biochemical
Conditions: Lineweaver-Burk plot

## COc1ccc(OC)c(S(=O)(=O)Nc2cnc3ccccc3c2)c1 [Compound 1, 2,5-Dimethoxy-N-(quinolin-3-yl)benzenesulfonamide]
  Mode of inhibition versus phosphate-acceptor substrate DEA: non-competitive inhibition
  Mode of inhibition versus phosphate-donor substrate CDP-star: uncompetitive
